Protein sequences, listed by entry. Tags and fused reporters are not part of them.
UniProt P16066, whole entry: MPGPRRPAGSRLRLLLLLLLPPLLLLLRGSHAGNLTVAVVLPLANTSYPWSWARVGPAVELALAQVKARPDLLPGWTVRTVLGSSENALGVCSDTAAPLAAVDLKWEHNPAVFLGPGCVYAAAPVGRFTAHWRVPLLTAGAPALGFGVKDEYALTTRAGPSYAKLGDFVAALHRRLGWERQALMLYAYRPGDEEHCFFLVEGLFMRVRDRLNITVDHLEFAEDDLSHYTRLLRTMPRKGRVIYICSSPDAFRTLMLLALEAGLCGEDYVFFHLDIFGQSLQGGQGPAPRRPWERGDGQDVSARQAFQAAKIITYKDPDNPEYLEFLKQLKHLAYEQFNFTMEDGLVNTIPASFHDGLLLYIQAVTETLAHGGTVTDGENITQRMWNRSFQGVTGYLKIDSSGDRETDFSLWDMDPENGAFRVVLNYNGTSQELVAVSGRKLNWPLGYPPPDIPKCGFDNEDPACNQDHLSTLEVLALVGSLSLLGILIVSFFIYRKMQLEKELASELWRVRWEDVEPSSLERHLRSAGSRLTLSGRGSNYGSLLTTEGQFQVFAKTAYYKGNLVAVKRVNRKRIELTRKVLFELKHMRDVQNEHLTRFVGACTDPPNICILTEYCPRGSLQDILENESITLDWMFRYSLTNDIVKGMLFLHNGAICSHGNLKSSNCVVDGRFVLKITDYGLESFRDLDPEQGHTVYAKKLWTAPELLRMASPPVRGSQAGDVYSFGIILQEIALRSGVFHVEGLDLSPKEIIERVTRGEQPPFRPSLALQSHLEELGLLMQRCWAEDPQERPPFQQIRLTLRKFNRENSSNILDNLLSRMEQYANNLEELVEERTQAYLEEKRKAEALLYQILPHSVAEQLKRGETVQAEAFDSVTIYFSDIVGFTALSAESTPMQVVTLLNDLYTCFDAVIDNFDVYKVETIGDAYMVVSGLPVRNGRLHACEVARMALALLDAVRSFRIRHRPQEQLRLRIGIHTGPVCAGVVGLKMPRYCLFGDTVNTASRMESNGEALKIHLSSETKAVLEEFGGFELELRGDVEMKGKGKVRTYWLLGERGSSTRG

The list shows a part of the results, in another mix than the full data. The source made the active and inactive calls. Cut-off read from the data, not from the text of the source: active = activation above about 40%; inactive = the rest.
What follows are molecules tested against Atrial natriuretic peptide receptor 1 (Homo sapiens) (UniProt P16066) (assay: GC-A stimulated cGMP production enhancers – HEK293 GC-A cells, cGMP TR-FRET, EC30 ANP, primary screen (AID 1671463)). Conditions: at 10 µM, stronger effect = higher value, 0% at EC30 ANP, 100% saturating ANP.
CCC(=O)N(c1ccccc1)C1(COC)CCN(CCc2cccs2)CC1 was tested, and the activation was inactive: -2.55%.
For CCC(=O)N(c1ccccc1)C1(COC)CCN(CCn2nnn(CC)c2=O)CC1, the activation was inactive: 5.47%.

From PubChem BioAssay AID1671463 (Sanford-Burnham Center for Chemical Genomics, 2021)
